Values quoted from earlier work, collected in patent US20100285611A1, “PHOTOBLEACHING RESISTANT PH SENSITIVE DYE NANOREACTORS WITH DUAL WAVELENGTH EMISSION” (priority 2009, published 2010).

Conditions: cited from earlier work

albumin: acidic protein, a major component of plasma (found at 3%)
pKa: 4.7
